Read-outs that look alike come from different tables or passages of the source.
Tests used:
SARS-CoV-2 M^pro [1] = target: T1, SARS-CoV-2 M^pro (Severe acute respiratory syndrome coronavirus 2, UniProt P0DTD1); assay: FRET-based enzymatic activity assay; assay type: biochemical
SARS-CoV-2 M^pro [2] = target: T1, SARS-CoV-2 M^pro; assay: biochemical; assay type: binding
SARS-CoV-2 M^pro [3] = target: T1, SARS-CoV-2 M^pro; assay: biochemical; assay type: binding; remark: listed apart in the source

Q: COc1cc2ccc(=O)oc2cc1O [Scopoletin, 6-methoxy-7-hydrocoumarian] was tested. Which IC50 (SARS-CoV-2 M^pro [1]) did it give?
A: Its IC50 is 15.8 µM.

Q: What about the Kd (SARS-CoV-2 M^pro [2]) of the same compound?
A: The Kd was 31.5 µM.

Q: And the KA (SARS-CoV-2 M^pro [3])?
A: Its KA is 2360 M⁻¹.

Q: And the Kd (SARS-CoV-2 M^pro [3])?
A: Its Kd is 424 µM.

— paper PMC11945487 (Viruses, 2025)
